This is an account of results in ChEMBL document CHEMBL5344473, “Inhibition of N-type calcium channels by phenoxyaniline and sulfonamide analogues” (RSC Med Chem, 2024).

The test system of this data set is COS-7. Conditions: chlorocebus aethiops, cos-7, 20 h.

`FC(F)(F)c1ccc(Oc2ccccc2NCc2ccc(OCCCN3CCCC3)cc2)cc1` had a CC50 of 30 µM.
